Values quoted from earlier work as cited in patent publication US20080312581A1, “Peptosomes for Use in Acoustically Mediated Intracellular Drug Delivery in vivo” (Biovaluation & Analysis, Inc., priority 2007, published 2008).

Legend:
[1] = pyrene fluorescence at 20° C.; cited from earlier work
[2] = set-up: key to Observed Structure: V = vesicle; A = irregular aggregate; S = membrane sheet; F = fiber; M = micelle; conditions: cited from earlier work

poly(L-lysine-HBr)60-block-poly(L-leucine)20 [Copolypeptide K60L20]
CMC [1]: 670 nM
Observed Structure ([2]; assembled structure in solution, determined visually from DIC images and DLS measurements): V
Size (average assembly size) ([2]; assembled structures in solution): 960 nm
PDI (assembly polydispersity) ([2]; determined by DLS): 0.24
